# Source: PubChem BioAssay AID1379 (National Center for Advancing Translational Sciences (NCATS), 2008)
# The entries are a selection whose mix differs from that of the whole data set. Active and inactive are the calls of the source. Calls come from the whole dose curve; as a rule, active = well fitted inhibition curve with a large enough effect; inconclusive = small, poorly fitted or top-dose-only effect; inactive = flat fitted curve, though single readings scatter.
# Target: Luciferin 4-monooxygenase (Photuris pensylvanica) (UniProt Q27757)
# Experiment: Counterscreen for Luciferase (Kinase-Glo TM) Inhibition; note: nearly all actives have a fitted effect of over 60% in size
# Details: ATP luminescence, 8 min; at 38.3 µM (top of the series)
# Description: NCGC Assay Overview: NIH Molecular Libraries Screening Centers Network [MLSCN] NIH Chemical Genomics Center [NCGC] MLSCN Grant: None Luciferase (Kinase-Glo, Promega Corporation) was assayed for its ability to generate light using ATP and luciferin as substrates. The ATP concentration in the assay (10 uM) was within the linear range of enzyme activity for the assay conditions used.
# NCGC Assay Protocol Summary: Four uL of substrate mix (final concentration, 50 mM imidazole pH 7.2, 50 mM KCl, 7 mM MgCl2, 10 uM ATP, 0.01% Tween 20, 0.05% BSA) was dispensed into white 1536 well plates. Twenty-three nL of compound was delivered by a pin tool and 2 uL of luciferase detection mix (Kinase-Glo, Promega)) was added. Following 8-minute incubation at ambient temperature, luminescence was measured by a ViewLux (Perkin Elmer) at 5 seconds exposure/plate.
# % is set by controls: 0 for no effect and ±100 for the full control effect.
row,Structure (SMILES),"activity change, negative = inhibition"
1,CN(CCCl)CCCl,inactive: 0.299%
